Laboratory results reported in PubChem BioAssay AID504660 (National Center for Advancing Translational Sciences (NCATS), 2011).
The entries are a selection whose mix differs from that of the whole data set. Calls of active or inactive are those of the source. Cut-off read from the data, not from the text of the source: active = activation above about 30%; inactive = the rest.

Protein sequences, listed by entry. Tags and fused reporters are not part of them.
UniProt P21728, whole entry, looked up: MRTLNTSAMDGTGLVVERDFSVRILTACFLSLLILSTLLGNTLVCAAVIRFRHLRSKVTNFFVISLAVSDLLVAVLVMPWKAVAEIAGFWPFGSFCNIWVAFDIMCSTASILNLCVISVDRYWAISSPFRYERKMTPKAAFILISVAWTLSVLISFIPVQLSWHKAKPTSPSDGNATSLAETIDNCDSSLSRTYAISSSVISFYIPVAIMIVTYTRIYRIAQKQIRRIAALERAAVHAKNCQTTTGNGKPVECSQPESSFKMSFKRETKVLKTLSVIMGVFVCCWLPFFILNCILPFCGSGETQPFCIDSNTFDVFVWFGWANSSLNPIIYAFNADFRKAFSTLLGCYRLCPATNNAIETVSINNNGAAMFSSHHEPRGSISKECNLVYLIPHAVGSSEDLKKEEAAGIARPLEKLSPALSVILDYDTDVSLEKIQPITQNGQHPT

What follows are molecules tested against D(1A) dopamine receptor (Homo sapiens) (UniProt P21728) (assay: Allosteric Agonists of the Human D1 Dopamine Receptor: qHTS). Settings: HEK293 T-REx D1 cells, calcium flux, agonist mode; at 2 µM; active compounds read high.
How it was run: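 Agonism was scored from calcium flux recorded over 180 s (1 read/s) after pintool compound addition, following a 10-cycle baseline. Cells were inducible force-coupled HEK293 TREx D1, plated overnight at 30 C and loaded with no-wash calcium dye.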
Note: 0% is about no effect.

SMILES	activation
O=C(/C=C/c1ccccc1)OC1CN2CCC1CC2 (stereo not given)	inactive: 6.6%
CN(C)C1(CNC(=O)c2ccc(S(C)(=O)=O)cc2)CCCCC1	inactive: 1.77%
Cc1ccc(C(=O)OC2CN3CCC2CC3)cc1 (stereo not given)	inactive: 0.877%
CC1CCC(C(C)C)C(OP(=O)(Nc2ccccn2)c2ccccc2)C1 (stereo not given)	inactive: 11.4%
Cc1nn(-c2ccccc2)c2c1P(=O)(N1CCOCC1)N(C)C(c1ccccc1)=N2 (stereo not given)	inactive: 2.77%
O=[As](O)(c1ccccc1Br)c1ccccc1Br	inactive: 1.64%
CN(C(=O)Cc1ccc(Cl)c(Cl)c1)[C@@H]1CCCC[C@H]1N1CCCC1	inactive: 3.34%
CC(C)/C=N\N=C(\N)N[N+](=O)[O-]	inactive: 2.24%
COc1ccccc1CNC(=O)COC(=O)C(O)(c1ccccc1)c1ccccc1	inactive: 0.904%
CC(C)(C)C(=O)NC(Sc1ncccn1)C(Cl)(Cl)Cl (stereo not given)	inactive: 5.7%
Clc1n[nH]nc1-c1nn[nH][15n]1	inactive: 2.46%
CCOP(=O)(Nc1ccc(C)cn1)OCC	inactive: 2.68%
CCOP(=O)(NC(=NC(C)c1ccccc1)NC(C)c1ccccc1)OCC (stereo not given)	inactive: 0.544%
CCC1=CC2Cc3nc4ccc(Cl)cc4c(N)c3C(C1)C2 (stereo not given)	inactive: 8.8%
O=P1(Nc2ccccn2)COc2ccccc2OC1	inactive: 2.66%
CCOP(=O)(Nc1cccc2cccnc12)OCC	inactive: 1.13%
CCC(C)N(CC(C)C)C(=S)SC(NC(C)=O)C(Cl)(Cl)Cl (stereo not given)	inactive: -0.341%
CCOC(=O)c1ccc(NC(=O)C(C)(CCl)SC)cc1 (stereo not given)	inactive: 0.295%
O=C(OC1CN2CCC1CC2)c1cccc([N+](=O)[O-])c1 (stereo not given)	inactive: 0.268%
O=C(Nc1ccncc1[N+](=O)[O-])c1ccc([N+](=O)[O-])cc1[N+](=O)[O-]	inactive: 2.71%
O=C(COc1ccccc1)OC1CN2CCC1CC2 (stereo not given)	inactive: 2.03%
COP1(=S)c2c(C)nn(CCC#N)c2N=C(c2ccc(F)cc2)N1C (stereo not given)	inactive: 2.88%
O=[N+]([O-])c1ccc(Nc2ccc(Oc3ccc([N+](=O)[O-])cc3[N+](=O)[O-])cc2)c([N+](=O)[O-])c1	inactive: 1.55%

SMILES	activation
Cc1cc(SC(NC=O)C(Cl)(Cl)Cl)ncn1 (stereo not given)	inactive: -1.1%
O=P(Nc1ccccn1)(c1cccc2ccccc12)c1cccc2ccccc12	inactive: 4.8%
CCOC(=O)Nc1cccc([As](=O)(O)O)c1	inactive: 1.91%
Cc1cc(SC(NC(=O)c2ccccc2)C(Cl)(Cl)Cl)nc(C(C)C)n1 (stereo not given)	inactive: 1.64%
CCCCOc1ccc(C(=O)NCC2(N3CCCCC3)CCCCC2)cc1OC	inactive: 1.16%
CCOC(=O)Nc1ccc([As](=O)(O)O)c(O)c1	inactive: 3.04%
O=[N+]([O-])c1cc([N+](=O)[O-])c(-c2ccn[nH]2)s1	inactive: -0.529%
CCN(CC)C(=S)SC(NC=O)C(Cl)(Cl)Cl (stereo not given)	inactive: 2.08%
CC(C)NC(=O)NP(=O)(Oc1ccccc1)Oc1ccccc1	inactive: 1.62%
CC(C)c1ccc(OP(=O)(Nc2ccccn2)Oc2ccccc2F)cc1 (stereo not given)	inactive: 2.45%
ClCCSc1nnc(-c2cccnc2)o1	inactive: 4.27%
Cc1ccc2nc3c(c(C)c2c1)CC(C(Cl)Cl)S3 (stereo not given)	inactive: 1.4%
Cc1ccc(OP(=O)(Nc2ccc([N+](=O)[O-])cn2)Oc2ccc(C)cc2)cc1	inactive: 3.41%
COc1cc(C(=O)NCC2(N3CCOCC3)CCCCC2)ccc1OCC(C)C	inactive: -0.435%
C[As](=O)(O)c1cccc(C(=O)O)c1	inactive: 5.17%
O=[As](O)(c1ccc(O)cc1)c1ccccc1O	inactive: 2.06%
COc1ccc(N/C(=N/P(=O)(N2CCOCC2)N2CCOCC2)N2CCOCC2)cc1	inactive: 2.71%
COc1cc(I)ccc1[As](=O)(O)O	inactive: 1.07%
COc1ccc2nc(NP(=O)(c3ccccc3)c3ccccc3)sc2c1	inactive: 2.12%
Cc1cc(=O)[nH]c(N[N+](=O)[O-])n1	inactive: 3.97%
O=C(OC1CN2CCC1CC2)C12CC3CC(CC(C3)C1)C2 (stereo not given)	inactive: 13.9%
Cc1c2c(nc3ccccc13)SC(C(Cl)Cl)C2 (stereo not given)	inactive: 0.923%
